PubChem AID 2061109: pyroptosis screen in mouse bone marrow macrophages, one dose (5 µM).
Target pathway: NLRP3 inflammasome, triggered by LPS and nigericin. Dead cells counted by propidium iodide.
Higher is more protection: 100% equals untreated cells, 0% the stimulated control, negative values set to 0. Active call (*): above 70%. Part of the library is listed.

| Structure (SMILES) | inhibition [%] |
|---|---|
| O=c1[nH][nH]c2cc(F)ccc12 | 78.7* |
| O=C(NC[C@H](O)CO)c1ccncc1Nc1ccc(I)cc1F | 0.0 |
| COCCOc1cc2nc[nH]c(=O)c2cc1OCCOC | 19.6 |
| Cl.O=C(O)C1=CCCNC1 | 0.0 |
| O=C(CCCCC(=O)Nc1scc(-c2cccs2)c1C(=O)O)Nc1scc(-c2cccs2)c1C(=O)O | 3.0 |
| Cc1nccn1-c1ccc(Sc2cccc(C3(C(N)=O)CCOCC3)c2)cc1.Cl | 0.0 |
| CCCCOc1ccc(CC/C=C2\SC(=O)N(CCN)C2=O)cc1.Cl | 21.6 |
| Cc1cccc(-c2[nH]ncc2-c2ccc(F)c(-c3cnn(CCO)c3)c2)n1 | 52.4 |
| Oc1cc2c(cc1O)CN(C(=S)NCCc1ccc(Cl)cc1)CCC2 | 12.7 |
| Cc1nccn1CC1CCc2c(c3ccccc3n2C)C1=O.Cl | 0.0 |
| Cc1cc(N2CCCCC2)nc2ccccc12 | 0.0 |
| Cc1cnc(Nc2ccc3c(c2)CCN(C(=O)/C=C/CN(C)C)C3)nc1-c1cnn(C(C)C)c1 | 0.0 |
| COc1ccc2[nH]cc(CCNC(C)=O)c2c1 | 1.0 |
| Cc1cccc(-c2[nH]ncc2-c2ccc3nccnc3c2)n1 | 55.2 |
| C=CC(=O)N1C[C@H](C)N(c2nc(=O)n(-c3c(C4CC4)ncnc3C3CC3)c3nc(-c4c(N)cccc4F)c(F)cc23)C[C@H]1C | 0.0 |
| CCOc1ccc(Nc2nc(-c3c(C)nc4ccccn34)cs2)cc1 | 62.3 |
| CCCCCCCCCCCCCCCCCCCCCC(=O)Nc1ccn([C@@H]2O[C@H](CO)[C@@H](O)[C@@H]2O)c(=O)n1 | 42.8 |
| CCS(=O)(=O)c1ncc(Cl)c(C(=O)N(Cc2ccc(Cl)cc2)Cc2ccco2)n1 | 87.5* |
| CC1CC(C)CN(CCC(=O)Nc2ccc(Br)cc2)C1.Cl | 69.1 |
| Cc1nnc(C(=O)NC(C)(C)c2nc(C(=O)NCc3ccc(F)cc3)c(O)c(=O)n2C)o1 | 0.0 |
| CCCOc1ccc(Br)cc1-c1cc(-c2ccc(Cl)cc2)[nH]c1-c1ccncc1 | 0.0 |
| CN(C)[C@@H]1C(=O)C(C(N)=O)=C(O)[C@@]2(O)C(=O)C3=C(O)c4c(O)cccc4[C@@](C)(O)[C@H]3[C@H](O)[C@@H]12.Cl | 18.7 |
| O=C1CC(Nc2ncnc3nc[nH]c23)CN1Cc1ccccc1 | 0.0 |
| O=C(NCc1cccc(O)c1)c1cc2cc(F)ccc2[nH]1 | 1.8 |
| CC(=O)/C(C)=N/O | 0.0 |
| O=C1c2ccccc2S(=O)(=O)N1CCCCN1CCN(c2ncccn2)CC1 | 33.9 |
| CCc1c(C#N)c(SC(C(N)=O)c2ccccc2)nc(N2CCC(N)CC2)c1C#N | 0.0 |
| CC/C(=C(/c1ccc(OCCNC/C=C/C(=O)N(C)C)cc1)c1ccc2[nH]ncc2c1)c1ccccc1 | 0.0 |
| Cn1c(=O)c2c3c(ccc2c2ccc4cc5c(cc4c21)OCO5)OCO3 | 32.3 |
| O=[N+]([O-])c1ccc(CNc2nc(NCc3cccc(C(F)(F)F)c3)nc3nc[nH]c23)cc1 | 8.0 |
| COc1ccccc1-c1cc2n(n1)Cc1ccc(NC(C)=O)cc1OC2 | 0.0 |
| COC(=O)/C=C/c1ccc(O)c(O)c1 | 0.0 |
| CCOc1cc(-c2nncn2C)ccc1Nc1ncc2cc(C)nc(NCC(C)(C)C)c2n1 | 0.0 |
| Nc1ccc(/C=C/C(=O)NCc2cc3cc(-c4ccc(C(=O)N5CCC(F)(F)CC5)cc4)cc(-c4ccc(F)cc4)c3o2)cn1 | 59.1 |
| O=C(Cc1nnc(-c2cnc(NC3Cc4ccccc4C3)nc2)o1)N1CCc2n[nH]nc2C1 | 30.7 |
| CC(=O)O.CC1CCN=C(N)C1 | 0.0 |
| CC(=O)SCC(Cc1ccccc1)C(=O)NCC(=O)OCc1ccccc1 | 20.4 |
| COc1ccccc1[C@H](Cn1c(=O)n(C(C)(C)C(N)=O)c(=O)c2c(C)c(-c3ncco3)sc21)OC1CCOCC1 | 39.9 |
| COc1ccccc1CC(=O)Nc1nc2ccc(C)cc2s1 | 0.0 |
| CC(C)Oc1ccc(C=O)cc1 | 3.0 |
| COc1cc(C(=O)NCCOCCOCCOCCNC(=O)CC2N=C(c3ccc(Cl)cc3)c3c(sc(C)c3C)-n3c(C)nnc32)ccc1NC(=O)C1NC(CC(C)(C)C)C(C#N)(c2ccc(Cl)cc2F)C1c1cccc(Cl)c1F | 0.0 |
| CN[C@H]1CCN(C(=O)c2ccc(Nc3ncc(F)c(-c4cnc(C)n4C(C)C)n3)cc2)C1 | 51.7 |
| O=c1[nH]c(=O)c2cn[nH]c2[nH]1 | 60.0 |
| Cn1cc(Nc2nccc(N3CC4CCC(C3)N4C(=O)[C@@H]3CC3(F)F)n2)cn1 | 10.5 |
| CNCCN1CCC(c2ccc3[nH]c(-c4ccc(OC)c(OC)c4)c(C(C)C)c3c2)CC1 | 0.0 |
| Cn1cc(-c2cn3nccc3c(-c3cnn(C4(CC#N)CC(C#N)C4)c3)n2)cn1 | 67.3 |
| COc1cc(O)c2c(c1)O[C@H](c1cc(O)cc(O)c1)CC2=O | 31.2 |
| COc1ccc(C(=O)c2c(C)n(CCN3CCOCC3)c3cc(Br)ccc23)cc1 | 0.0 |
| Cc1cc(=O)c2c(O)cc(OCC3CS3)cc2o1 | 0.0 |
| C[C@H]1CNC(=O)c2cnn3cc4c(nc23)N(Cc2cc(F)cnc2O1)[C@@H]1CCC[C@@H]1O4 | 0.0 |
| NCCNc1ncc(C(N)=O)c(Nc2cccc(C(F)(F)F)c2)n1 | 0.0 |
| C[C@H]1CC[C@]2(NC1)O[C@H]1C[C@H]3[C@@H]4CC[C@H]5C[C@@H](O)CC[C@]5(C)[C@H]4CC[C@]3(C)[C@H]1[C@@H]2C.Cl | 86.1* |
| CN(Cc1cnc2nc(N)nc(N)c2n1)c1ccc(C(=O)N[C@@H](CCC(=O)O)C(=O)O)cc1 | 33.4 |
| O=C(NCCCN1CCOCC1)c1ccc(Cl)cc1 | 80.0* |
| CCN(CC)CCNC(=S)Nc1ccc2nc(N3CCN(CC)CC3)cc(C)c2c1 | 61.1 |
| CC[C@@H](C)NS(=O)(=O)c1ccc(F)c(C(=O)Nc2ccc(F)c(F)c2)c1 | 30.4 |
| O=c1oc2cc(O)ccc2s1 | 37.2 |
| CNC[C@@H](NC(=O)c1ccc(-c2nc([C@H]3CC[C@H](O)[C@@H](F)C3)cnc2N)cc1F)c1cc(F)cc(Br)c1 | 40.6 |
| Cc1c(-c2[nH]c3ccc(C4CCN(CC(N)=O)CC4)cc3c2C(C)C)cn2ncnc2c1C | 45.3 |
| Nc1nc(OCc2ccc(CNC(=O)C(F)(F)F)cc2)c2[nH]cnc2n1 | 11.8 |
| CC(=O)Nc1ccc(C(=O)Nc2ccc(F)cc2N)cc1 | 45.0 |
| CCCN1C[C@H](C)[C@@H](O)[C@](C)(O)[C@@H](CC)OC(=O)[C@H](C)[C@@H](O[C@H]2C[C@@](C)(OC)[C@@H](O)[C@H](C)O2)[C@H](C)[C@@H](O[C@@H]2O[C@H](C)C[C@H](N(C)C)[C@H]2O)[C@](C)(O)C[C@H]1C | 0.0 |
| COc1cc2ncnc(Nc3ccc(F)c(Cl)c3)c2cc1O | 0.0 |
| N#CC1(c2cccc(C(=O)Nc3cc(Oc4ccc5nc(NC(=O)C6CC6)sc5n4)ccc3F)c2Cl)CC1 | 24.2 |
| O=C1Nc2ccccc2/C1=C\c1ccc(F)cc1 | 53.7 |
| NC(=O)[C@H]1CCCc2c1[nH]c1ccc(Cl)cc21 | 0.0 |

A second listing of 9 compounds from above:

{"Structure (SMILES)": "Cc1nnc(C(=O)NC(C)(C)c2nc(C(=O)NCc3ccc(F)cc3)c(O)c(=O)n2C)o1", "inhibition [%]": "0.0"}
{"Structure (SMILES)": "COc1cc(O)c2c(c1)O[C@H](c1cc(O)cc(O)c1)CC2=O", "inhibition [%]": "31.2"}
{"Structure (SMILES)": "CN[C@H]1CCN(C(=O)c2ccc(Nc3ncc(F)c(-c4cnc(C)n4C(C)C)n3)cc2)C1", "inhibition [%]": "51.7"}
{"Structure (SMILES)": "O=[N+]([O-])c1ccc(CNc2nc(NCc3cccc(C(F)(F)F)c3)nc3nc[nH]c23)cc1", "inhibition [%]": "8.0"}
{"Structure (SMILES)": "COc1ccccc1-c1cc2n(n1)Cc1ccc(NC(C)=O)cc1OC2", "inhibition [%]": "0.0"}
{"Structure (SMILES)": "CNCCN1CCC(c2ccc3[nH]c(-c4ccc(OC)c(OC)c4)c(C(C)C)c3c2)CC1", "inhibition [%]": "0.0"}
{"Structure (SMILES)": "COc1cc(C(=O)NCCOCCOCCOCCNC(=O)CC2N=C(c3ccc(Cl)cc3)c3c(sc(C)c3C)-n3c(C)nnc32)ccc1NC(=O)C1NC(CC(C)(C)C)C(C#N)(c2ccc(Cl)cc2F)C1c1cccc(Cl)c1F", "inhibition [%]": "0.0"}
{"Structure (SMILES)": "CC(C)Oc1ccc(C=O)cc1", "inhibition [%]": "3.0"}
{"Structure (SMILES)": "Cc1cc(N2CCCCC2)nc2ccccc12", "inhibition [%]": "0.0"}